ChEMBL document CHEMBL1133607, “Nonpeptide analogues of dynorphin A(1-8): design, synthesis, and pharmacological evaluation of kappa-selective agonists” (J Med Chem, 2000)

The chains behind the UniProt entries cited, without tags or fusion partners. Where a name states a change or a piece, a line headed by the entry shows the natural chain unless it says otherwise.
UniProt P33535, whole entry, looked up: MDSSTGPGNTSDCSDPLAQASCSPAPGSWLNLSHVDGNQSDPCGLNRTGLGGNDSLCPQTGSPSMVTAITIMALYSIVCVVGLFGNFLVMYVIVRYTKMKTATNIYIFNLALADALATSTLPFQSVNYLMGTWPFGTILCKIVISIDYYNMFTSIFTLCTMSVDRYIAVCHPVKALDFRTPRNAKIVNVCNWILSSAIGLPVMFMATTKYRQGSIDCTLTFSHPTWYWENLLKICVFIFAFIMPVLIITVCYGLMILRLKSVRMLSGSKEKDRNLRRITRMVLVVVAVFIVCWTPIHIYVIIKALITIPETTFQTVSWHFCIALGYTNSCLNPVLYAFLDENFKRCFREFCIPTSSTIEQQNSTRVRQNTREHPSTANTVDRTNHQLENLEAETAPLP
UniProt P41144: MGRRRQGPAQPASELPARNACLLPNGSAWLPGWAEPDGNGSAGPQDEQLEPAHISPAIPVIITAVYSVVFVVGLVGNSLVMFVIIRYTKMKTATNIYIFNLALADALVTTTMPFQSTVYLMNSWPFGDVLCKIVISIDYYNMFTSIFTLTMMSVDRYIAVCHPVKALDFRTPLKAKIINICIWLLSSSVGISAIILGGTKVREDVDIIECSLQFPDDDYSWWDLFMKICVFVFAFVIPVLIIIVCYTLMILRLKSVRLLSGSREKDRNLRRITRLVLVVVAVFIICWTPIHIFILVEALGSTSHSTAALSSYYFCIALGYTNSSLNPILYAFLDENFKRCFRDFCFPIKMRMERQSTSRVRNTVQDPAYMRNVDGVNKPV
UniProt P33533, whole entry, looked up: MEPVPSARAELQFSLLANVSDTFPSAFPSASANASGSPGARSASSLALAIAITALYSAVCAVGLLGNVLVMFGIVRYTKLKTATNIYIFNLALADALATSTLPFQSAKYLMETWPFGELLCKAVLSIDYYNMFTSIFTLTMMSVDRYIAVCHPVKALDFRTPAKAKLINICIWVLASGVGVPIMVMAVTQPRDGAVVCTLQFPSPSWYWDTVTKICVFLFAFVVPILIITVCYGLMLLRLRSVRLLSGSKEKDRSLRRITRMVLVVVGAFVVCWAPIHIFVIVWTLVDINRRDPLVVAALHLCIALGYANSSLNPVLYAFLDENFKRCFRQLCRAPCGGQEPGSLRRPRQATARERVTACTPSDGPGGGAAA

Experiments:
[1] = target: Mu-type opioid receptor (Rattus norvegicus, UniProt P33535); assay: Tested for binding affinity by [3H]diprenorphine displacement for Opioid receptor mu 1 was carried on crude membrane fractions obtained from the whole rat brain minus cerebellum..
[2] = tested on: Mus musculus; assay: Effective dose of the compounds at 10 mg/kg of nor-BNI was administered subcutaneously 10 min before agonist were administered in mice for rotarod test.; conditions: route subcutaneous
[3] = tested on: Mus musculus; assay: Effective dose at 10 mg/kg of nor-BNI was administered subcutaneously 10 min before agonist were administered in mice to test the antinociceptive activity.; conditions: route subcutaneous
[4] = target: Kappa-type opioid receptor (Cavia porcellus, UniProt P41144)
[5] = target: Delta-type opioid receptor (Rattus norvegicus, UniProt P33533); assay: Tested for binding affinity by [3H]diprenorphine displacement for Opioid receptor delta 1 are carried on crude membrane fractions obtained from the whole rat brain minus cerebellum.

Which results are given for CN(C(=O)Cc1ccc(Cl)c(Cl)c1)C1CCCCC1N1CCCC1 (stereo not given)?
Ki [1]: 716 nM; ED50 [2]: 8.2 mg/kg; ED50 [3]: 0.76 mg/kg; Ki [4]: 5.01 nM; Ki [5]: 8100 nM
